Screening results deposited in PubChem BioAssay by several laboratories.
In the library only some 4.2% were active in any assay of this set; here they are far more common.
MC4R antagonist – MC4R antagonists of cAMP signaling, primary screen, cell-based, TR-FRET, antagonist arm of biased-ligand search; Melanocortin receptor 4 (Homo sapiens), P32245; MC4R-expressing cells, MTII-stimulated cAMP, LANCE TR-FRET; hit rate 0.48% among 360,000; inhibition, % at 6.5 µM;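 active means inhibition above its plate's cutoff, the mean of tested wells on that plate plus 3 SD, cut at about 29% in these data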;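 further: 0% = Melanotan II alone and 100% = Melanotan II plus saturating MCL0020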
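Assay system: U2OS cells stably expressing human melanocortin 4 receptor (MC4R) / Dosing: 6.5 µM / Timing: compound 30 min, challenge 1 h, detection 1 h / Measured by: Eu-cAMP/anti-cAMP TR-FRET, emission 671 nm / Replicates: singlicate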
Yeast UUG start – yeast start codon fidelity modulation | S. cerevisiae UUG-firefly luciferase reporter, luminescence/redox ratio | activity score, % at 18.7 µM | hit rate 0.13% among 350,000 | AID 602363;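 active means replicate mean at a twofold rise or more, about +100% in these data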;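 further: firefly luciferase made from a UUG start codon reports start codon fidelity; reporter light over untreated wells divided by growth signal over untreated wells; some hits fall short of that in this replicate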
HDAC3 inhib – HDAC3 deacetylase inhibitors, primary screen, biochemical, fluorescence, cell-free homogeneous; recombinant HDAC3, fluorogenic peptide/trypsin coupled; hit rate 0.15% among 320,000; inhibition, % at 8.3 µM; in the data active means inhibition above about 26%, passing the limit was not always enough
MC4R barr agon – MC4R agonists recruiting beta-arrestin, primary screen, cell-based, luminescence, agonist arm of biased-ligand search. Melanocortin receptor 4 (Homo sapiens), P32245. U2OS MC4R beta-arrestin complementation; percent of melanotan II response, DMSO zero. activation, % at 8.9 µM. hit rate 0.98% among 360,000;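 active means activation above a per-plate cutoff, the mean activation of sample wells on that plate plus 3 SD, cut at about 8% in these data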
ALR inh – inhibitors of human sulfhydryl oxidase ALR; AID 485317; inhibition, % (no concentration beside the values); purified ALR, DTT oxidation, H2O2 HRP-luminol luminescence; hit rate 3.8% among 290,000;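 active means mean and each replicate at 75% or more; inconclusive means only one of the two met; inactive means neither met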;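 further: stock transfer was 7.5 nL into about 7.5 µL; 0% = neutral wells and 100% = wells with inactivated enzyme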
NALP1 yeast inh – NALP1 inflammasome inhibitors in reconstituted yeast, colorimetric, S. cerevisiae, triplicate retest; S. cerevisiae NALP1/ASC/caspase-1 growth, X-gal OD620, 72 h; inhibition, % at 10 µM; hit rate 0.61% among 280,000; AID 2071, 2009; in the data active means inhibition mostly above about 24%, no sharp cut-off; inactive means mostly below about 32%
Numbers without * were called inactive; / = no result.

The chains behind the UniProt entries cited, without tags or fusion partners.
Melanocortin receptor 4 (Homo sapiens), P32245, UniProt P32245, whole entry, looked up: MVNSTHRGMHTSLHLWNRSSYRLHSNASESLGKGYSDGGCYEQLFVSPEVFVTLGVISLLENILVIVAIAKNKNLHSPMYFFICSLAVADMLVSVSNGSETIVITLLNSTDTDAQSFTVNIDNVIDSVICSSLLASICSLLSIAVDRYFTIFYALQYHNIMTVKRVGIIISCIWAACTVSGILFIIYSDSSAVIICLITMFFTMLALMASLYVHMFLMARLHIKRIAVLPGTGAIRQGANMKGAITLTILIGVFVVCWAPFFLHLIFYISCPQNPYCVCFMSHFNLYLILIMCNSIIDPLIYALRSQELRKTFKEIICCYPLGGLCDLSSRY

1: O=C(C[C@H]1CC[C@@H]2[C@H](COC[C@H](O)CN2C(=O)Nc2ccc(Cl)c(Cl)c2)O1)NCc1ccccc1
2: C[C@H](O)C#Cc1cnc2c(c1)C(=O)N([C@@H](C)CO)C[C@@H](C)[C@@H](CN(C)C(=O)c1ccc(F)cc1)O2
3: CO[C@@H]1CN(C)C(=O)c2ccc(NC(=O)C3CCC3)cc2OC[C@@H](C)N(Cc2cccnc2)C[C@@H]1C
4: Cc1ccc(S(=O)(=O)N(C)C[C@@H]2OCCCC[C@@H](C)Oc3ccc(NS(=O)(=O)c4ccccc4)cc3C(=O)N([C@@H](C)CO)C[C@@H]2C)cc1
5: COc1ccc(NC2CCCN(C(=O)c3ccc(OC)cc3OC)C2)cc1 (stereo not given)
6: CCn1nc(CC(C)C)cc1C(=O)N1CCCC(Nc2ccc(OC)cc2)C1 (stereo not given)

| compound no. | 1 | 2 | 3 | 4 | 5 | 6 |
| --- | --- | --- | --- | --- | --- | --- |
| MC4R antagonist | / | / | / | / | -2 | 4 |
| Yeast UUG start | 0 | 5 | -8 | 0 | -1 | -13 |
| HDAC3 inhib | / | / | / | / | 11 | -1 |
| MC4R barr agon | / | / | / | / | -2 | -2 |
| ALR inh | / | / | / | / | 99* | 98* |
| NALP1 yeast inh | / | / | / | / | 4 | 24 |

7: CCn1nc(C)cc1C(=O)N1CCCC(Nc2ccc(F)c(F)c2)C1 (stereo not given)
8: Cc1ccc(NC2CCCN(C(=O)c3ccoc3)C2)cc1C (stereo not given)
9: COc1ccc(C(=O)N2CCCC(Nc3ccc(C)c(C)c3)C2)cc1 (stereo not given)
10: Cc1noc(C)c1NC(=O)N(C)C[C@H]1OCCCC[C@@H](C)Oc2ccc(NC(=O)c3ccccc3)cc2C(=O)N([C@@H](C)CO)C[C@H]1C
11: CN1c2ccc(C#Cc3cccnc3)cc2[C@@H]2[C@@H](CCN2C(=O)c2cccc(F)c2)[C@H]1CO
12: CNC[C@@H]1Oc2cc(-c3ccccc3F)ccc2S(=O)(=O)N([C@@H](C)CO)C[C@H]1C

| compound no. | 7 | 8 | 9 | 10 | 11 | 12 |
| --- | --- | --- | --- | --- | --- | --- |
| MC4R antagonist | 4 | -4 | 7 | / | / | / |
| Yeast UUG start | 0 | -5 | -17 | -2 | -3 | -7 |
| HDAC3 inhib | 4 | / | 0 | / | / | / |
| MC4R barr agon | -1 | 0 | -2 | / | / | / |
| ALR inh | 14 | 99* | 98* | / | / | / |
| NALP1 yeast inh | 6 | 10 | 6 | / | / | / |

13: Cc1ccc(NC2CCCN(C(=O)c3ccoc3C)C2)cc1C (stereo not given)
14: O=C(Nc1ccc(O)cc1)/C(=C\c1ccncc1)NC(=O)c1ccccc1
15: O=C(Nc1ccc(O)cc1)/C(=C/c1ccco1)NC(=O)c1ccccc1
16: CCC(=O)N(C)C[C@H]1Oc2ncc(C3=CCCC3)cc2C(=O)N([C@@H](C)CO)C[C@H]1C
17: COC(=O)Nc1ccc(S(=O)(=O)N2CCC(C(=O)N3CCCC(C)C3)CC2)cc1 (stereo not given)
18: CC1CCCN(C(=O)C2CCN(S(=O)(=O)c3ccccc3)CC2)C1 (stereo not given)

| compound no. | 13 | 14 | 15 | 16 | 17 | 18 |
| --- | --- | --- | --- | --- | --- | --- |
| MC4R antagonist | 6 | -2 | -2 | / | 6 | 6 |
| Yeast UUG start | -9 | -3 | / | 12 | 3 | -16 |
| HDAC3 inhib | -2 | 1 | 4 | / | -1 | -1 |
| MC4R barr agon | -1 | 1 | -1 | / | -2 | -2 |
| ALR inh | 98* | 99* | 99* | / | -20 | / |
| NALP1 yeast inh | 12 | 9 | / | / | 38* | / |

Brought forward from above: two compounds; new compounds follow.
17: COC(=O)Nc1ccc(S(=O)(=O)N2CCC(C(=O)N3CCCC(C)C3)CC2)cc1 (stereo not given)
18: CC1CCCN(C(=O)C2CCN(S(=O)(=O)c3ccccc3)CC2)C1 (stereo not given)
19: COC(=O)Nc1ccc(S(=O)(=O)N2CCC(C(=O)N(C)C3CCCCC3)CC2)cc1
20: Cc1ccc(S(=O)(=O)N(C)C[C@H]2OCCCC[C@H](C)Oc3ccc(NC(=O)CCC(F)(F)F)cc3C(=O)N([C@@H](C)CO)C[C@H]2C)cc1
21: C[n+]1ccc(/C=N/Nc2nc(Cl)c(C#N)c(Cl)c2Cl)cc1
22: CC(C)(O)C#Cc1ccc([C@H]2[C@@H](CO)N3CCCCN(C(=O)c4ccncc4)C[C@@H]23)cc1
23: CN1C(=O)c2cc(NC(=O)c3ccccc3)ccc2OC[C@@H]2O[C@@H](CC(=O)O)CC[C@H]21
24: COC(=O)c1c(NC(=O)C2CC=CCC2C(=O)O)sc(C)c1C (stereo not given)

| compound no. | 17 | 18 | 19 | 20 | 21 | 22 | 23 | 24 |
| --- | --- | --- | --- | --- | --- | --- | --- | --- |
| MC4R antagonist | 6 | 6 | 6 | / | -18 | / | / | 6 |
| Yeast UUG start | 3 | -16 | -8 | 18 | -21 | -11 | 2 | 13 |
| HDAC3 inhib | -1 | -1 | -7 | / | -6 | / | / | 2 |
| MC4R barr agon | -2 | -2 | -3 | / | -4 | / | / | -2 |
| ALR inh | -20 | / | 92* | / | 82* | / | / | -2 |
| NALP1 yeast inh | 38* | / | -4 | / | -20 | / | / | 8 |
